Reference: US9884130B2, “Compositions for delivery of oral comfort sensations” (The Procter & Gamble Company, priority 2013, dated 2018)

Amino acid sequences for entries named in this document (tags omitted). Chains listed by the source or under a name are the forms on record and can include a tag or linker. Residues count along the entry.
UniProt P97438, 16-385 with tags or gaps limits assumed: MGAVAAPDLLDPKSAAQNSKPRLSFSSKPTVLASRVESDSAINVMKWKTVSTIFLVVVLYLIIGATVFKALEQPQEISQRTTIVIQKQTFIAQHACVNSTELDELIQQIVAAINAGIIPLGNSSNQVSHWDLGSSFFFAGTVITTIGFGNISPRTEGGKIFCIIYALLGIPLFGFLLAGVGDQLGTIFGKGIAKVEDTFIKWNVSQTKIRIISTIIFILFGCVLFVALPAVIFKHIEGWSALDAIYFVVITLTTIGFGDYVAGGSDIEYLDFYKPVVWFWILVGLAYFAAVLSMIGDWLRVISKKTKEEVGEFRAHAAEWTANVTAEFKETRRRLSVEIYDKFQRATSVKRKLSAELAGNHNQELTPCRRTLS

Molecular target: mouse TREK-1 (mTREK-1t) (Mus musculus, UniProt P97438)
Assay: FLIPR membrane potential assay in HEK-293 cells stably transfected with mTREK-1t
Assay type: cell-based

Q: Which results are given for `CCCCOP(=O)(OCCCC)OCCCC`?
A: Activity Level (percentage of activity relative to 100% with 50 mM potassium nitrate) (Sample Conc. 0.0005%): 8.34%; Activity Level (percentage of activity relative to 100% with 50 mM potassium nitrate) (Sample Conc. 0.0010%): 8.75%; Activity Level (percentage of activity relative to 100% with 50 mM potassium nitrate) (Sample Conc. 0.0021%): 9.28%; Activity Level (percentage of activity relative to 100% with 50 mM potassium nitrate) (Sample Conc. 0.0042%): 9.41%; Activity Level (percentage of activity relative to 100% with 50 mM potassium nitrate) (Sample Conc. 0.0083%): 13.52%; Activity Level (percentage of activity relative to 100% with 50 mM potassium nitrate) (Sample Conc. 0.0167%): 30.74%; Activity Level (percentage of activity relative to 100% with 50 mM potassium nitrate) (Sample Conc. 0.0330%): 69%
